Results published in PubChem BioAssay AID2247 (Johns Hopkins Ion Channel Center, 2010).
The entries are a selection whose mix differs from that of the whole data set. Active and inactive are the calls of the source.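 Rule for the calls: active = B-score over 3 SD under the library average, no early fluorescence shift, positive overall ratio signal; inactive = the rest.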

Sequences of proteins named here, by UniProt entry; tags and fusion partners are left off.
UniProt Q9QUQ5, whole entry: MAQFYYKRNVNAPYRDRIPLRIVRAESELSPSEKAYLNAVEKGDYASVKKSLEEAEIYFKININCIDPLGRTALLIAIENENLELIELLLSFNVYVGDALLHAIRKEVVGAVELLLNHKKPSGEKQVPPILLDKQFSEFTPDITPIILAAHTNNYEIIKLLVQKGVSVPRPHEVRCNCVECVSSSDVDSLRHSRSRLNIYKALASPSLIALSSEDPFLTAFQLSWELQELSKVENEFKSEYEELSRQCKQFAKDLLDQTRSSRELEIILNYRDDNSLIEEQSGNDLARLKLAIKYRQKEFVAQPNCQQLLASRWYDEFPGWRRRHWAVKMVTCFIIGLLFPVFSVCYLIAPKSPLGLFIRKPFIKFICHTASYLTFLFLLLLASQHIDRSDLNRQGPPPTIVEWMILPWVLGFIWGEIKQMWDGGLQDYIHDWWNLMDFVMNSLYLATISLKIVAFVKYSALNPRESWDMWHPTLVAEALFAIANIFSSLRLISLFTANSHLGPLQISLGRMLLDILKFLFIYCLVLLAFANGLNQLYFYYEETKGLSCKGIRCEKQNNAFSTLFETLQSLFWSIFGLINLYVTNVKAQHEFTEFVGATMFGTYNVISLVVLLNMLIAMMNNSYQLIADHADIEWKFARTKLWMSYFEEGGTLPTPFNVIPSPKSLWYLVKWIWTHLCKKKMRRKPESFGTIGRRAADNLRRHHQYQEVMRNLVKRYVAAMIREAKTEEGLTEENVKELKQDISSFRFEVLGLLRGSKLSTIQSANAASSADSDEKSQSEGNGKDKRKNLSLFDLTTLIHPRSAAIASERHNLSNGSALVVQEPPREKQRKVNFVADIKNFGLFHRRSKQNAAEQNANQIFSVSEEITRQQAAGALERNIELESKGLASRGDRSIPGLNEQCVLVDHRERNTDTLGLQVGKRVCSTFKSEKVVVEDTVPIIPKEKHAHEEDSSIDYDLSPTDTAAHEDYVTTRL

These molecules were tested against Short transient receptor potential channel 4 (Mus musculus) (UniProt Q9QUQ5) (assay: inhibitors of mouse TRPC4 channel, primary screen, Fluo4 calcium, HEK293 TRPC4beta/mu-opioid cells (AID 2247)). Details: DAMGO-evoked Fluo4 calcium flux, at 10 µM.

| Compound | outcome |
| --- | --- |
| COc1ccc(OP(C)(=O)Nc2cccc(F)c2)cc1 (stereo unspecified) | inactive |
| O=[N+]([O-])c1cc([N+](=O)[O-])c(-c2ccn[nH]2)s1 | inactive |
| CC(C)NC(=O)NP(=O)(Oc1ccccc1)Oc1ccccc1 | inactive |
| COc1ccccc1OP(C)(=O)Nc1cc(Cl)ccc1C (stereo unspecified) | inactive |
| CCN(CC)C(=S)SC(NC=O)C(Cl)(Cl)Cl (stereo unspecified) | inactive |
| C[As](=O)(O)c1cccc(C(=O)O)c1 | inactive |
| O=[As](O)(c1ccc(O)cc1)c1ccccc1O | inactive |
| O=[N+]([O-])c1cc([N+](=O)[O-])c(Nc2cccnc2)c([N+](=O)[O-])c1 | inactive |
| O=[N+]([O-])c1ccc2c(c1)C=Nc1ccccc1O2 | inactive |
| Cc1ccc2nc3c(c(C)c2c1)CC(C(Cl)Cl)S3 (stereo unspecified) | inactive |
| Cc1cccc(C)c1OP(C)(N)=O (stereo unspecified) | inactive |
| Cc1ccc(OP(=O)(Nc2ccc([N+](=O)[O-])cn2)Oc2ccc(C)cc2)cc1 | inactive |
| CC(C)(C)c1ccc(OP(C)(=O)Nc2ccc(SC(F)(F)F)cc2)cc1 (stereo unspecified) | inactive |
| COc1ccc(N/C(=N/P(=O)(N2CCOCC2)N2CCOCC2)N2CCOCC2)cc1 | inactive |
| Cc1cc(=O)[nH]c(N[N+](=O)[O-])n1 | inactive |
| CCN(CC)CCCOC(=O)C(O)(c1ccccc1)c1ccccc1 | inactive |
| O=C(OC1CN2CCC1CC2)C12CC3CC(CC(C3)C1)C2 (stereo unspecified) | inactive |
| Cc1c2c(nc3ccccc13)SC(C(Cl)Cl)C2 (stereo unspecified) | inactive |
| COc1cc(I)ccc1[As](=O)(O)O | inactive |
| COc1ccc2nc(NP(=O)(c3ccccc3)c3ccccc3)sc2c1 | inactive |
| O=[N+]([O-])c1cc([N+](=O)[O-])c(O)c([N+](=O)[O-])c1.c1ccc(Oc2ccncc2)cc1 | inactive |
| CCOC(=O)c1ccc(NC(=O)C(C)(CCl)SC)cc1 (stereo unspecified) | inactive |
| CCOC(=O)c1ccc(NP(C)(=O)Oc2ccc(OC)cc2)cc1 (stereo unspecified) | inactive |

| Compound | outcome |
| --- | --- |
| CCOP(C)(=S)SCC(=O)NC(C)C(=O)O (stereo unspecified) | inactive |
| O=C(OC1CN2CCC1CC2)c1cccc([N+](=O)[O-])c1 (stereo unspecified) | inactive |
| CP(=O)(Nc1ccccn1)Oc1ccc(Cl)cc1 (stereo unspecified) | inactive |
| CCC(C)N(CC(C)C)C(=S)SC(NC(C)=O)C(Cl)(Cl)Cl (stereo unspecified) | inactive |
| CP(=O)(Oc1ccccc1)OC(c1ccccc1)C(F)(F)F (stereo unspecified) | inactive |
| COP1(=S)c2c(C)nn(CCC#N)c2N=C(c2ccc(F)cc2)N1C (stereo unspecified) | inactive |
| CP(=O)(Nc1ccc(SC(F)(F)F)cc1)Oc1ccc(Cl)cc1 (stereo unspecified) | inactive |
| Cc1cccc(C)c1OP(C)(=O)Nc1ccc(SC(F)(F)F)cc1 (stereo unspecified) | inactive |
| O=C(Nc1ccncc1[N+](=O)[O-])c1ccc([N+](=O)[O-])cc1[N+](=O)[O-] | inactive |
| Cc1cc(C)cc(OP(C)(=O)Nc2ccc(SC(F)(F)F)cc2)c1 (stereo unspecified) | inactive |
| CP(=O)(NC(=O)Nc1ccccc1)Oc1ccccc1 (stereo unspecified) | inactive |
| O=C(COc1ccccc1)OC1CN2CCC1CC2 (stereo unspecified) | inactive |
| CCc1ccc(OP(C)(=O)N2CCN(c3ccc([N+](=O)[O-])cc3)CC2)cc1 (stereo unspecified) | inactive |
| CCOC(=O)Nc1cccc([As](=O)(O)O)c1 | inactive |
| CP(=S)(Nn1cnnc1)Oc1ccccc1 (stereo unspecified) | inactive |
| O=[N+]([O-])c1ccc(Nc2ccc(Oc3ccc([N+](=O)[O-])cc3[N+](=O)[O-])cc2)c([N+](=O)[O-])c1 | inactive |
| CP(=O)(Nc1ccccc1Br)Oc1ccccc1 (stereo unspecified) | inactive |
| COc1ccccc1OP(C)(=O)Nc1ccccc1 (stereo unspecified) | inactive |
| Cc1cc(SC(NC=O)C(Cl)(Cl)Cl)ncn1 (stereo unspecified) | inactive |
| O=P(Nc1ccccn1)(c1cccc2ccccc12)c1cccc2ccccc12 | inactive |
| CCOC(=O)Nc1ccc([As](=O)(O)O)c(O)c1 | inactive |
| Cc1cc(SC(NC(=O)c2ccccc2)C(Cl)(Cl)Cl)nc(C(C)C)n1 (stereo unspecified) | inactive |
| CCCCOc1ccc(C(=O)NCC2(N3CCCCC3)CCCCC2)cc1OC | inactive |
